Experimental data: patent publication US8809377B2, “Deubiquitinase inhibitors and methods for use of the same” (The Regents of the University of Michigan, priority 2010, dated 2014)

Columns and labels:
[1] = system: HG23 cells; test: Cell cytotoxicity assay kit
[2] = system: BaF3 cell lines expressing WT and T315I variants of Bcr-Abl; test: Apoptosis / MTT in Bcr-Abl transformed BaF3 cells
[3] = system: RAW 264.7 cells; settings: mouse
[4] = system: Listeria monocytogenes; test: Listeria monocytogenes infection of macrophages, CFU
[5] = system: RAW 264.7 cells; test: cells; settings: Mus musculus, RAW264.7, 12 h, read-out: IC50 for viability
[6] = system: Z138; test: MTT cell growth, survival and apoptosis; settings: Z138 cells, 0.3-5 μM, 1 mM DTT

SMILES | concentrations with compound associated cytotoxicity [1] | sensitivity to compound-mediated apoptosis [2] | Cell viability (WST-1) [3] | Colony forming units (CFUs) normalized to vehicle control ([4]; RAW 264.7, pre-treatment with 5 μM, eight hours post-infection) | Colony forming units (CFUs) normalized to vehicle control ([4]; RAW 264.7, treatment 1 hour postinfection) | IC50 [5] | compound-induced apoptosis and anti-proliferative effects in the presence of DTT [6]
CCC[C@H](NC(=O)/C(C#N)=C/c1cccc(Br)n1)c1ccccc1 [WP1130] | higher than 10 μM | high sensitivity | above 80% | Significantly fewer bacteria | did not lead to a decrease | 7.6 µM | complete loss
C[C@H](NC(=O)/C(C#N)=C/c1ccc([N+](=O)[O-])c(O)c1)c1ccccc1 [WP1051] |  |  | above 80% |  |  |  | 
C[C@H](NC(=O)/C(C#N)=C/c1ccc(O)c([N+](=O)[O-])c1)c1ccccc1 [WP1052] |  |  | above 80% |  |  |  | 
